In EP4825860A1, “FUSED RING NITROGEN-CONTAINING COMPOUND, CRYSTAL FORM THEREOF, PREPARATION METHOD THEREFOR, AND USE THEREOF” (dated 2026):

How the values were obtained:
[1] = Rat PK Assay, oral administration; settings: SD rats, 50mg/kg, dispersed in 0.5% MC/water + 0.1% Tween 80, plasma
Procedure: The purpose of this experiment was to study the pharmacokinetics of the test compounds administered orally to SD rats (SPF grade, Beijing Vital River Laboratory Animal Technology Co., Ltd.). The experimental procedure was as follows: • 1) The above compound crystalline forms were uniformly dispersed in a mixture of 99.9% (0.5% MC (450 cp)/water) + 0.1% Tween 80 at a concentration of 5.0 mg/mL, and then administered orally (10 mL/kg); • 2) Blood samples were collected at 0.083, 0.25, 0.5, 1, 2, 4, 6, 8, and 24 hours, with 0.25 mL collected each time, and EDTA-K2 was added. After collection, the blood samples were placed on ice and centrifuged within 1 hour to separate plasma (centrifugation conditions: 6000 g, 3 minutes, 2-8°C). Plasma samples were stored in a -80°C freezer prior to analysis; • 3) For sample analysis, the concentration of the compound in the plasma samples was analyzed using an LC-MS/MS method. For the plasma assay results, pharmacokinetic parameters were calculated using WinNonlin (Phoenix, version 8.2.0) or other similar software.

[2] = Solid-state stability of crystalline forms on storage (Test Example 1, XRPD); settings: open conditions at 25°C/60% RH and sealed conditions at 60°C for two weeks
Procedure: The crystalline form C of the compound of formula I obtained in Example 1-2, the crystalline form C of the compound of formula V obtained in Example 9, the crystalline form A of the compound of formula IX obtained in Example 13, and the crystalline form F of the compound of formula IX obtained in Example 24 were placed under open conditions at 25°C/60% RH and sealed conditions at 60°C for two weeks.

[3] = Solubility of crystalline forms in media at 37°C (Test Example 3)
Procedure: The crystalline form C of the compound of formula I, the crystalline form A of the compound of formula III, the crystalline form C of the compound of formula V, and the crystalline form A of the compound of formula IX obtained in the above examples were subjected to solubility testing. The test method was as follows: The crystalline form C of the compound of formula I (8 mg), the crystalline form A of the compound of formula III (9 mg), the crystalline form A of the compound of formula IX (11.7 mg), and the crystalline form C of the compound of formula V (10 mg) were weighed into 20 mL glass vials, respectively. 4 mL of medium was added to each. The resulting suspensions or clear solutions were stirred at 37°C at 400 rpm. Samples (0.5 mL each) were taken at 0.5 hours and 2 hours, and centrifuged at 37°C at 14,000 rpm for 5 min. The resulting filtrates were finally subjected to content testing.

[4] = Hygroscopicity test with RH gradient (Test Example 2); settings: gradient of 40-0-95-0-40% RH, 25°C
Text: The hygroscopicity characterization and the definition of hygroscopic weight gain involved in the present invention (refer to the Hygroscopicity Test Guideline for Drugs, Part IV, Chinese Pharmacopoeia 2020 Edition) are as follows: • Deliquescent: Absorbs sufficient moisture to form a liquid; • Extremely hygroscopic: Hygroscopic weight gain not less than 15%; • Hygroscopic: Hygroscopic weight gain less than 15% but not less than 2%; • Slightly hygroscopic: Hygroscopic weight gain less than 2% but not less than 0.2%; • Non-hygroscopic or almost non-hygroscopic: Hygroscopic weight gain less than 0.2%.
Test method: A gradient of 40-0-95-0-40% RH was set, with dm/dt 0.002/s. The system was equilibrated for 60~360 min for every 10% RH change. The test temperature was 25°C.

[5] = listed as Crystalline Form A of the compound of Formula II
[6] = Fasted State Simulated Gastric Fluid, dissolution time 0.5h
[7] = Fasted State Simulated Gastric Fluid, dissolution time 2h
[8] = Fasted State Simulated Intestinal Fluid, dissolution time 0.5h
[9] = Fasted State Simulated Intestinal Fluid, dissolution time 2h
[10] = Fed State Simulated Intestinal Fluid, dissolution time 0.5h
[11] = Fed State Simulated Intestinal Fluid, dissolution time 2h

Structure (SMILES) | AUC(0-t) [1, 5] | Cmax [1, 5] | Tmax [1, 5] | stability of the crystalline form (XRPD patterns after storage) [2] | Solubility (mg/mL) [3, 6] | Solubility (mg/mL) [3, 7] | Solubility (mg/mL) [3, 8] | Solubility (mg/mL) [3, 9] | Solubility (mg/mL) [3, 10] | Solubility (mg/mL) [3, 11] | Solubility (mg/mL) ([3]; Water, dissolution time 0.5h) | Solubility (mg/mL) ([3]; Water, dissolution time 2h) | hygroscopicity [4] | water absorbed [4] | AUC(0-t) [1] | Cmax [1] | Tmax [1] | crystalline form before and after the test [4]
COc1cnc(Cl)cc1-c1cc(C)ncc1C(=O)Nc1nc2cnc(-c3c(C)nnn3C)c(F)c2s1 | 5.997 µg·h/mL | 543 ng/mL | 10.7 h | good stability |  |  |  |  |  |  |  |  |  |  |  |  |  | 
COc1cnc(Cl)cc1-c1cc(C)ncc1C(=O)Nc1nc2cnc(-c3c(C)nnn3C)c(F)c2s1 [crystalline form A of the compound of formula III] |  |  |  |  | B (B indicates solubility of 0.1-1 mg/mL) | B (B indicates solubility of 0.1-1 mg/mL) | B (B indicates solubility of 0.1-1 mg/mL) | A (A indicates solubility of 0.01-0.1 mg/mL) | B (B indicates solubility of 0.1-1 mg/mL) | B (B indicates solubility of 0.1-1 mg/mL) | A (A indicates solubility of 0.01-0.1 mg/mL) | A (A indicates solubility of 0.01-0.1 mg/mL) | moderate hygroscopicity | 4.8% |  |  |  | 
COc1cnc(Cl)cc1-c1cc(C)ncc1C(=O)Nc1nc2cnc(-c3c(C)nnn3C)c(F)c2s1 [crystalline form A of the compound of formula IX] |  |  |  | good stability | B (B indicates solubility of 0.1-1 mg/mL) | B (B indicates solubility of 0.1-1 mg/mL) | B (B indicates solubility of 0.1-1 mg/mL) | B (B indicates solubility of 0.1-1 mg/mL) | B (B indicates solubility of 0.1-1 mg/mL) | B (B indicates solubility of 0.1-1 mg/mL) | A (A indicates solubility of 0.01-0.1 mg/mL) | A (A indicates solubility of 0.01-0.1 mg/mL) |  | 0.2% | 743.182 µg·h/mL | 97800 ng/mL | 0.833 h | 
COc1cnc(Cl)cc1-c1cc(C)ncc1C(=O)Nc1nc2cnc(-c3c(C)nnn3C)c(F)c2s1 [crystalline form C of the compound of formula I] |  |  |  | good stability | A (A indicates solubility of 0.01-0.1 mg/mL) | A (A indicates solubility of 0.01-0.1 mg/mL) | A (A indicates solubility of 0.01-0.1 mg/mL) | A (A indicates solubility of 0.01-0.1 mg/mL) | A (A indicates solubility of 0.01-0.1 mg/mL) | A (A indicates solubility of 0.01-0.1 mg/mL) | A (A indicates solubility of 0.01-0.1 mg/mL) | A (A indicates solubility of 0.01-0.1 mg/mL) | non-hygroscopic |  |  |  |  | remained unchanged
COc1cnc(Cl)cc1-c1cc(C)ncc1C(=O)Nc1nc2cnc(-c3c(C)nnn3C)c(F)c2s1 [crystalline form C of the compound of formula V] |  |  |  | good stability | B (B indicates solubility of 0.1-1 mg/mL) | B (B indicates solubility of 0.1-1 mg/mL) | B (B indicates solubility of 0.1-1 mg/mL) | B (B indicates solubility of 0.1-1 mg/mL) | B (B indicates solubility of 0.1-1 mg/mL) | B (B indicates solubility of 0.1-1 mg/mL) | A (A indicates solubility of 0.01-0.1 mg/mL) | A (A indicates solubility of 0.01-0.1 mg/mL) |  | 1.7% |  |  |  | 
